Laboratory results reported in patent publication US20060153912A1 (BASF Aktiengesellschaft, priority 2002, published 2006).

Assays:
[1] = Color stability of 50% strength water/methanol solutions stirred at reflux (65° C.) in air, Gardner/Hazen color number
[2] = Color stability of 10% strength solutions in water/methanol (1:1), 7 h at 65° C., with and without stabilizer; assay type: physicochemical; settings: 10% strength solution in water/methanol (1:1)
Experimental: The experiments took place under the following conditions: 10% strength solutions in water/methanol (1:1)—7 h at 65° C.

[3] = after only a few days at 40° C. in the presence of humidity
[4] = 50% choline ascorbate solution, additive 1% by weight, reaction time 2 h
[5] = 50% solution in 1:1 water/methanol, without additive, reaction time 0 h
[6] = 50% solution in 1:1 water/methanol, without additive, reaction time 1 h
[7] = 50% solution in 1:1 water/methanol, without additive, reaction time 2 h
[8] = 50% solution in 1:1 water/methanol, without additive, reaction time 7 h

Color number Gardner [1, 4]: 3.5
Color number Hazen [1, 4]: 758
Color number Gardner [1, 5]: 0.1
Color number Hazen [1, 5]: 28
Color number Gardner [1, 6]: 1.9
Color number Hazen [1, 6]: 305
Color number Gardner [1, 7]: 3.5
Color number Hazen [1, 7]: 758
Color number Gardner [1, 8]: 6.3
Color number Hazen [1, 8]: >1000
Color number Gardner ([2]; no additive): 6.3
Color number Hazen ([2]; no additive): >1 000 ^
Color number Gardner ([2]; with 1% Cys): 0.1
Color number Hazen ([2]; with 1% Cys): 27
Discoloration of the solid [3]: brownish color on the surface
Substance: Choline ascorbate
